Laboratory results from PMC10287910 (Nucleic Acids Research, 2023).

Biological target: T1, ParA2 (Vibrio cholerae, UniProt Q9KKJ2)
T1 construct: gene VC_A1115
Experiment: biochemical

In the case of `CNc1ccccc1C(=O)O[C@H]1[C@@H](O)[C@H](n2cnc3c(N)ncnc32)O[C@@H]1CO[P@@](=O)(O)O[P@](=O)(O)OP(=O)(O)O` [MANT-ATP], the Kd is reported as ~11 µM.
